In patent US12377155B2, “Bicyclic peptide ligands specific for PSMA” (BicycleRD Limited, priority 2018, dated 2025) one finds Ki data, which are given here for one substance.

Amino acid sequences for entries named in this document (tags omitted).
UniProt Q04609, whole entry: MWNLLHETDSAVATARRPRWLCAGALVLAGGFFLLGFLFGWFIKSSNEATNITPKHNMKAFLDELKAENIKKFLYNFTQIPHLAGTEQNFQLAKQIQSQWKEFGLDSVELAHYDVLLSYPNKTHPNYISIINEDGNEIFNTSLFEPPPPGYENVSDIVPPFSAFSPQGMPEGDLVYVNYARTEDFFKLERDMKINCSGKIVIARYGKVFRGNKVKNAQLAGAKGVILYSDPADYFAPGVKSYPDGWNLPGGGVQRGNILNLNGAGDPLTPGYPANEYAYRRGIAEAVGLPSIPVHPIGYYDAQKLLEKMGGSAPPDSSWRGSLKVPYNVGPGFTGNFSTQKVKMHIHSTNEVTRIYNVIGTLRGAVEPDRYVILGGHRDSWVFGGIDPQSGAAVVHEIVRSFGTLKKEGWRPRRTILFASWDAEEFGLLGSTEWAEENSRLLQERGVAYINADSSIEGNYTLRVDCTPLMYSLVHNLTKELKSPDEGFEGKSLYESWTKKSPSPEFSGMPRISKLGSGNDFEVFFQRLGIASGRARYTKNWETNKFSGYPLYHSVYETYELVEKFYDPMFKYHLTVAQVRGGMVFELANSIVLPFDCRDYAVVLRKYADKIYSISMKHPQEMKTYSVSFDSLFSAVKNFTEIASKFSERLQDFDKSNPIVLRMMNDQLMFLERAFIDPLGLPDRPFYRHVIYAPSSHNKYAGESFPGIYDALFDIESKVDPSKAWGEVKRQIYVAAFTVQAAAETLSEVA

The target in the experiment is PSMA (Homo sapiens, UniProt Q04609). Kind of experiment: PSMA binding, fluorescence polarization assay. Conditions: read-out: FP(h) ki. The method, then:
PSMA binding was measured using the fluorescence polarization assay methodology described in Shen et al (2013) PLOS ONE 8(7), […] and PSMA enzyme inhibition was measured using the methodology described in WO 2009/070302.
The peptide ligands of the invention were tested in the above mentioned PSMA binding and enzyme inhibition assays and the results are shown in Table 1: […]

“(B-Ala)-Sar5-AC(Nle)VCH(Nle)(Nle)EDGTC [21-31-N008]”: the Ki was 1360 nM.
